Experimental data taken from patent US20160130245A1, “6,8-SUBSTITUTED NARINGENIN DERIVATIVE AND USE THEREOF” (SUN YAT-SEN UNIVERSITY, priority 2012, published 2016).

System: mice with cough induced from aqueous ammonia
Experiment: Cough relieving effect of singly administered compounds in mice with cough induced from aqueous ammonia
Set-up: species or system male KM mice
Conditions: mouse, in vivo
Description: II. Test on Cough Relieving Effect of Singly Administered Example Compounds of the Present Invention in Mice with Cough Induced from Aqueous Ammonia
1. Test animals: male KM mice (available from Guangdong Medical Laboratory Animal Center, Certificate No.: SCXK (Guangdong) 2008-0002, No. 0113738).
2. Test groups and treatment with drugs: Blank control group: treatment with 50% (v/v) PEG400 in physiological saline.
Treatment group with codeine phosphate as positive control—Codeine phosphate (Lott 20091212) is manufactured by Qinghai Pharmaceutical Co., Ltd. Before test, powdered codeine phosphate was added to 50% (v/v) PEG400 in physiological saline, to formulate a 0.47 μmol/ml solution.
Example compounds: the powdered example compounds were formulated into 50% (v/v) PEG400 in physiological saline respectively, to give a 7.44 μmol/ml solution or suspension.
Eligible male KM mice were randomly designated to a blank control group, and treatment groups with codeine phosphate as positive control and with example compounds, according to […].
The animals in each group were administered by intragastric gavage or intraperitoneal injection at a dosage of 0.2 ml/10 g of body weight, and placed in a cough inducing chamber 1 hr after administration. 1 ml of 25% concentrated aqueous ammonia was added to an atomizing cup and atomized for 15 s (at a rate of 0.15 ml/min). The coughs in 3 min were counted (during the typical cough, the mouth was opened and the head was lowered, which were accompanied by quivering of the neck and frequently a forward rushing).
Statistical analysis of data—Statistical analysis of all the data was conducted by SPSS 17.0 after the outliers were excluded by t test. Analysis of variance was performed by one-way ANOVA, multiple comparisons between the blank control group and each treatment group were carried out by Dunnett test, and the pairwise multiple comparisons between each treatment group and the codeine phosphate group were conducted by Duncan test. […]

SMILES: CCCc1c(O)cc(O)c2c1OC(c1ccc(O)cc1)CC2=O (stereo not drawn) [Example 1, 8-n-propyl-2,3-dihydro-5,7-dihydroxy-2-(4-hydroxyphenyl)chromen-4-one]
- Cough relieving rate: 65.11%
- cough relieving effect / therapeutic efficacy compared with reference substances (in words): higher than naringenin
- Coughs (ip): 6.2 ± 3.5
